Measurements published in US20260241026A1, “THERAPEUTIC METHOD FOR LOW-DRUG-SENSITIVITY CANCERS BY ADMINISTRATION OF ANTI-MUC1 ANTIBODY-DRUG CONJUGATE” (priority 2023, published 2026).

System: human breast cancer cell line HCC70
Test: Antitumor test in model with transplanted breast cancer cell line HCC70 (Example 5)
Protocol: A human breast cancer cell line HCC70 was purchased from ATCC and reconstituted using RPMI 1640 medium (manufactured by Thermo Fisher Scientific Inc.) containing 10% fetal bovine serum. Then, the cells were cultured in an incubator set to 37° C. and 5% CO2, and passaged at a frequency of once to twice a week. […] The suspension was subcutaneously transplanted at 100 μL to each 5-week-old female nude mouse (1×10^7 cells/100 μL/head). The mice were grouped 21 days after transplantation when the average tumor volume in the mice with the transplant became about 198 mm^3.
Six mice per group were used in groups 1, 2, and 3, and 12 mice was used in group 4. Body weights and tumor sizes were measured once to twice a week, and estimated tumor volumes were calculated. The comparison of drug efficacy between agents was analyzed by the parametric Dunnett's multiple comparison.
TA-MUC1-DXd ADC was sequentially administered at 10 mg/kg (Q3W×3) to one of the groups, and evaluation and observation were carried out up to Day 84.

Substance: trastuzumab deruxtecan [HER2-DXd ADC, reference compound]
- tumor course after regrouping of the HER2-DXd ADC administration group (10 mg/kg from Day 21 to tumors pre-treated with HER2-DXd ADC, TA-MUC1-DXd ADC Q3W×3 up to Day 84, HER2-DXd ADC up to Day 42): grew continuously
- ETV (mm^3) Mean (Day 21, 10 mg/kg, intravenous, HCC70): 443 mm^3
- tumor regression effect (Day 21, 10 mg/kg, HCC70): no tumor regression
